The record followed here is patent US10730889B2, “Amido spirocyclic amide and sulfonamide derivatives” (Forma TM, LLC, priority 2012, dated 2020).

Chains of the proteins cited; added tags and fusions are not shown. Lines headed by an entry give the natural chain unless they say otherwise; changes in a name come on top.
UniProt P43490: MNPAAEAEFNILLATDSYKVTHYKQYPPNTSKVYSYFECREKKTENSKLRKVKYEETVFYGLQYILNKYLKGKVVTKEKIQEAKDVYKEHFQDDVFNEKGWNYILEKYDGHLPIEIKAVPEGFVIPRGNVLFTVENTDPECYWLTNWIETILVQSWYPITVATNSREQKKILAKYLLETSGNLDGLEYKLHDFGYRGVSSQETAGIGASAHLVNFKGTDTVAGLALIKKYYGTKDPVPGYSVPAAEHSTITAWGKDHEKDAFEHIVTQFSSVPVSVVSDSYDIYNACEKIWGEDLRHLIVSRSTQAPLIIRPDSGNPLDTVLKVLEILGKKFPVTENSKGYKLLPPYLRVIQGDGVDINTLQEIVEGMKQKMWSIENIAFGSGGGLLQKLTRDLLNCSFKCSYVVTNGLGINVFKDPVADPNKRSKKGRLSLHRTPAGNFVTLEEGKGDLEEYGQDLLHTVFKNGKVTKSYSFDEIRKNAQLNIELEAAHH

What is called IC50 is the concentration that inhibits the measured activity by half. A lower IC50 goes with greater potency in that assay.

The experiment concerns the target NAMPT (Homo sapiens (Human), UniProt P43490). The experiment can be described thus: Biochemical inhibition assay (NAMPT enzymatic reaction, NMN quantified by mass spectrometry).
Compound `O=C(NCC1CC12CCN(C(=O)c1c[nH]cn1)CC2)c1cc2ccncc2o1` (centres unmarked) [Example 101, N-[[6-(1H-imidazole-4-carbonyl)-6-azaspiro[2.5]octan-2-yl]methyl]furo[2,3-c]pyridine-2-carboxamide] gave an IC50 of 625 nM. The figure for `O=C(NCC1CC12CCN(C(=O)c1ccncn1)CC2)c1cc2ccncc2o1` (centres unmarked) [Example 102, N-[[6-(pyrimidine-4-carbonyl)-6-azaspiro[2.5]octan-2-yl]methyl]furo[2,3-c]pyridine-2-carboxamide] is 1210 nM; for `O=C(NCC1CC12CCN(C(=O)c1cccnc1)CC2)c1cc2ccncc2o1` (centres unmarked) [Example 103, N-[[6-(pyridine-3-carbonyl)-6-azaspiro[2.5]octan-2-yl]methyl]furo[2,3-c]pyridine-2-carboxamide] it is 440 nM. Next, `O=C(NCC1CC12CCN(C(=O)c1cc[nH]n1)CC2)c1cc2ccncc2o1` (centres unmarked) [Example 104, N-[[6-(1H-pyrazole-3-carbonyl)-6-azaspiro[2.5]octan-2-yl]methyl]furo[2,3-c]pyridine-2-carboxamide]: 2920 nM; `Cn1cnc(C(=O)N2CCC3(CC2)CC3CNC(=O)c2cc3ccncc3o2)c1` (centres unmarked) [Example 105, N-[[6-(1-methylimidazole-4-carbonyl)-6-azaspiro[2.5]octan-2-yl]methyl]furo[2,3-c]pyridine-2-carboxamide]: 246 nM; `Cc1n[nH]cc1C(=O)N1CCC2(CC1)CC2CNC(=O)c1cc2ccncc2o1` (centres unmarked) [Example 106, N-[[6-(3-methyl-1H-pyrazole-4-carbonyl)-6-azaspiro[2.5]octan-2-yl]methyl]furo[2,3-c]pyridine-2-carboxamide]: 396 nM. The figure for `Cn1nccc1C(=O)N1CCC2(CC1)CC2CNC(=O)c1cc2ccncc2o1` (centres unmarked) [Example 107, N-[[6-(2-methylpyrazole-3-carbonyl)-6-azaspiro[2.5]octan-2-yl]methyl]furo[2,3-c]pyridine-2-carboxamide] is 372 nM. Consider `Cc1cc(C(=O)N2CCC3(CC2)CC3CNC(=O)c2cc3ccncc3o2)n[nH]1` (centres unmarked) [Example 108, N-[[6-(5-methyl-1H-pyrazole-3-carbonyl)-6-azaspiro[2.5]octan-2-yl]methyl]furo[2,3-c]pyridine-2-carboxamide], for which the 50% inhibitory concentration (IC50) stood at 216 nM. `Cn1ccc(C(=O)N2CCC3(CC2)CC3CNC(=O)c2cc3ccncc3o2)n1` (centres unmarked) [Example 109, N-[[6-(1-methylpyrazole-3-carbonyl)-6-azaspiro[2.5]octan-2-yl]methyl]furo[2,3-c]pyridine-2-carboxamide] yielded an IC50 of 99.3 nM. `O=C(NCC1CC12CCN(C(=O)c1cccnn1)CC2)c1cc2ccncc2o1` (centres unmarked) [Example 110, N-[[6-(pyridazine-3-carbonyl)-6-azaspiro[2.5]octan-2-yl]methyl]furo[2,3-c]pyridine-2-carboxamide] gave a half-inhibitory concentration (IC50) of 861 nM. In the case of `O=C(NCC1CC12CCN(C(=O)c1cnccn1)CC2)c1cc2ccncc2o1` (centres unmarked) [Example 112, N-[[6-(pyrazine-2-carbonyl)-6-azaspiro[2.5]octan-2-yl]methyl]furo[2,3-c]pyridine-2-carboxamide], the IC50 was 417 nM. Compound `O=C(NCC1CC12CCN(C(=O)c1ccnnc1)CC2)c1cc2ccncc2o1` (centres unmarked) [Example 113, N-[[6-(pyridazine-4-carbonyl)-6-azaspiro[2.5]octan-2-yl]methyl]furo[2,3-c]pyridine-2-carboxamide] came in with an IC50 of 877 nM.

With `Cn1cc(C(=O)N2CCC3(CC2)CC3CNC(=O)c2cc3ccncc3o2)cn1` (centres unmarked) [Example 114, N-[[6-(1-methylpyrazole-4-carbonyl)-6-azaspiro[2.5]octan-2-yl]methyl]furo[2,3-c]pyridine-2-carboxamide], the IC50 stood at 325 nM. Next, `Cc1cc(C(=O)N2CCC3(CC2)CC3CNC(=O)c2cc3ccncc3o2)nn1C` (centres unmarked) [Example 115, N-[[6-(1,5-dimethylpyrazole-3-carbonyl)-6-azaspiro[2.5]octan-2-yl]methyl]furo[2,3-c]pyridine-2-carboxamide]: 49.9 nM; `Cc1cc(C(=O)N2CCC3(CC2)CC3CNC(=O)c2cc3ccncc3o2)no1` (centres unmarked) [Example 117, N-[[6-(5-methylisoxazole-3-carbonyl)-6-azaspiro[2.5]octan-2-yl]methyl]furo[2,3-c]pyridine-2-carboxamide]: 422 nM. `Cc1nonc1C(=O)N1CCC2(CC1)CC2CNC(=O)c1cc2ccncc2o1` (centres unmarked) [Example 118, N-[[6-(4-methyl-1,2,5-oxadiazole-3-carbonyl)-6-azaspiro[2.5]octan-2-yl]methyl]furo[2,3-c]pyridine-2-carboxamide] returned a half-maximal inhibitory concentration (IC50) of 449 nM.

As to `Cc1ncccc1C(=O)N1CCC2(CC1)CC2CNC(=O)c1cc2ccncc2o1` (centres unmarked) [Example 119, N-[[6-(2-methylpyridine-3-carbonyl)-6-azaspiro[2.5]octan-2-yl]methyl]furo[2,3-c]pyridine-2-carboxamide], the IC50 stood at 188 nM. The figure for `Cc1ccncc1C(=O)N1CCC2(CC1)CC2CNC(=O)c1cc2ccncc2o1` (centres unmarked) [Example 120, N-[[6-(4-methylpyridine-3-carbonyl)-6-azaspiro[2.5]octan-2-yl]methyl]furo[2,3-c]pyridine-2-carboxamide] is 207 nM. With `Cc1cc(C(=O)N2CCC3(CC2)CC3CNC(=O)c2cc3ccncc3o2)ccn1` (centres unmarked) [Example 121, N-[[6-(2-methylpyridine-4-carbonyl)-6-azaspiro[2.5]octan-2-yl]methyl]furo[2,3-c]pyridine-2-carboxamide], the concentration for half-maximal inhibition (IC50) was determined as 308 nM. The figure for `Cc1cnc(C(=O)N2CCC3(CC2)CC3CNC(=O)c2cc3ccncc3o2)cn1` (centres unmarked) [Example 122, N-[[6-(5-methylpyrazine-2-carbonyl)-6-azaspiro[2.5]octan-2-yl]methyl]furo[2,3-c]pyridine-2-carboxamide] is 97.4 nM; for `O=C(NCC1CC12CCN(C(=O)c1cc(C3CC3)n[nH]1)CC2)c1cc2ccncc2o1` (centres unmarked) [Example 123, N-[[6-(3-cyclopropyl-1H-pyrazole-5-carbonyl)-6-azaspiro[2.5]octan-2-yl]methyl]furo[2,3-c]pyridine-2-carboxamide] it is 66.1 nM. Next, `CCn1ncc(C(=O)N2CCC3(CC2)CC3CNC(=O)c2cc3ccncc3o2)c1C` (centres unmarked) [Example 124, N-[[6-(1-ethyl-5-methyl-pyrazole-4-carbonyl)-6-azaspiro[2.5]octan-2-yl]methyl]furo[2,3-c]pyridine-2-carboxamide]: 151 nM; `Cc1noc(C)c1C(=O)N1CCC2(CC1)CC2CNC(=O)c1cc2ccncc2o1` (centres unmarked) [Example 125, N-[[6-(3,5-dimethylisoxazole-4-carbonyl)-6-azaspiro[2.5]octan-2-yl]methyl]furo[2,3-c]pyridine-2-carboxamide]: 95.5 nM. The figure for `CCn1cc(C(=O)N2CCC3(CC2)CC3CNC(=O)c2cc3ccncc3o2)cn1` (centres unmarked) [Example 126, N-[[6-(1-ethylpyrazole-4-carbonyl)-6-azaspiro[2.5]octan-2-yl]methyl]furo[2,3-c]pyridine-2-carboxamide] is 273 nM. In turn, `N#Cc1ccc(C(=O)N2CCC3(CC2)CC3CNC(=O)c2cc3ccncc3o2)cn1` (centres unmarked) [Example 127, N-[[6-(6-cyanopyridine-3-carbonyl)-6-azaspiro[2.5]octan-2-yl]methyl]furo[2,3-c]pyridine-2-carboxamide] gave an IC50 of 269 nM. In turn, `Cc1nc(C)c(C(=O)N2CCC3(CC2)CC3CNC(=O)c2cc3ccncc3o2)o1` (centres unmarked) [Example 128, N-[[6-(2,4-dimethyloxazole-5-carbonyl)-6-azaspiro[2.5]octan-2-yl]methyl]furo[2,3-c]pyridine-2-carboxamide] displayed a concentration for half-maximal inhibition (IC50) of 91.4 nM.

`O=C(NCC1CC12CCN(C(=O)c1ccnc(N3CCOCC3)c1)CC2)c1cc2ccncc2o1` (centres unmarked) [Example 129, N-[[6-(2-morpholinopyridine-4-carbonyl)-6-azaspiro[2.5]octan-2-yl]methyl]furo[2,3-c]pyridine-2-carboxamide] yielded an IC50 of 100 nM. Next, `Cn1cc(-c2ccno2)c(C(=O)N2CCC3(CC2)CC3CNC(=O)c2cc3ccncc3o2)n1` (centres unmarked) [Example 132, N-[[6-(4-isoxazol-5-yl-1-methyl-pyrazole-3-carbonyl)-6-azaspiro[2.5]octan-2-yl]methyl]furo[2,3-c]pyridine-2-carboxamide]: 43.2 nM.

As for `CC(=O)Nc1cc(C(=O)N2CCC3(CC2)CC3CNC(=O)c2cc3ccncc3o2)ccn1` (centres unmarked) [Example 133, N-[[6-(2-acetamidopyridine-4-carbonyl)-6-azaspiro[2.5]octan-2-yl]methyl]furo[2,3-c]pyridine-2-carboxamide], the midpoint of inhibition, the IC50, lay at 194 nM. Next, `O=C(NCC1CC12CCN(C(=O)c1c[nH]nc1-n1cnnn1)CC2)c1cc2ccncc2o1` (centres unmarked) [Example 134, N-[[6-[3-(tetrazol-1-yl)-1H-pyrazole-4-carbonyl]-6-azaspiro[2.5]octan-2-yl]methyl]furo[2,3-c]pyridine-2-carboxamide]: 47.7 nM; `CC(=O)Nc1cccc(C(=O)N2CCC3(CC2)CC3CNC(=O)c2cc3ccncc3o2)n1` (centres unmarked) [Example 135, N-[[6-(6-acetamidopyridine-2-carbonyl)-6-azaspiro[2.5]octan-2-yl]methyl]furo[2,3-c]pyridine-2-carboxamide]: 50.9 nM; `CCc1noc(C)c1C(=O)N1CCC2(CC1)CC2CNC(=O)c1cc2ccncc2o1` (centres unmarked) [Example 136, N-[[6-(3-ethyl-5-methyl-isoxazole-4-carbonyl)-6-azaspiro[2.5]octan-2-yl)methyl]furo[2,3-c]pyridine-2-carboxamide]: 104 nM. The figure for `CCn1nc(C)cc1C(=O)N1CCC2(CC1)CC2CNC(=O)c1cc2ccncc2o1` (centres unmarked) [Example 137, N-[[6-(2-ethyl-5-methyl-pyrazole-3-carbonyl)-6-azaspiro[2.5]octan-2-yl]methyl]furo[2,3-c]pyridine-2-carboxamide] is 252 nM; for `CCn1cc(C(=O)N2CCC3(CC2)CC3CNC(=O)c2cc3ccncc3o2)c(C)n1` (centres unmarked) [Example 138, N-[[6-(1-ethyl-3-methyl-pyrazole-4-carbonyl)-6-azaspiro[2.5]octan-2-yl)methyl]furo[2,3-c]pyridine-2-carboxamide] it is 94.1 nM; for `Cc1nocc1C(=O)N1CCC2(CC1)CC2CNC(=O)c1cc2ccncc2o1` (centres unmarked) [Example 139, N-[[6-(3-methylisoxazole-4-carbonyl)-6-azaspiro[2.5]octan-2-yl]methyl]furo[2,3-c]pyridine-2-carboxamide] it is 163 nM.
